Data: ChEMBL document CHEMBL1124636, “3,4-Dihydro-2H-1-benzopyran-2-carboxylic acids and related compounds as leukotriene antagonists” (J Med Chem, 1989)

System: Cysteinyl leukotriene receptor (Cavia porcellus)
Assay: Inhibitory activity to block binding of [3H]leukotriene D4 to LTD4 receptor sites in homogenized guinea pig lung at 10 uM

- inhibition: 0%
Compound: CCCc1c(OCCCSc2ccc([C@@H](O)[C@H](C)CC(=O)O)cc2)ccc(C(C)=O)c1O [L-649923]
